Data published in patent US7541157B2, “Method of screening groups of radioactive molecules and applications thereof” (Commissariat a l'Energie Atomique, priority 2002, dated 2009).

Chains of the proteins cited; added tags and fusions are not shown. Residues count along the entry.
UniProt P12821, 30-1306, species assumed: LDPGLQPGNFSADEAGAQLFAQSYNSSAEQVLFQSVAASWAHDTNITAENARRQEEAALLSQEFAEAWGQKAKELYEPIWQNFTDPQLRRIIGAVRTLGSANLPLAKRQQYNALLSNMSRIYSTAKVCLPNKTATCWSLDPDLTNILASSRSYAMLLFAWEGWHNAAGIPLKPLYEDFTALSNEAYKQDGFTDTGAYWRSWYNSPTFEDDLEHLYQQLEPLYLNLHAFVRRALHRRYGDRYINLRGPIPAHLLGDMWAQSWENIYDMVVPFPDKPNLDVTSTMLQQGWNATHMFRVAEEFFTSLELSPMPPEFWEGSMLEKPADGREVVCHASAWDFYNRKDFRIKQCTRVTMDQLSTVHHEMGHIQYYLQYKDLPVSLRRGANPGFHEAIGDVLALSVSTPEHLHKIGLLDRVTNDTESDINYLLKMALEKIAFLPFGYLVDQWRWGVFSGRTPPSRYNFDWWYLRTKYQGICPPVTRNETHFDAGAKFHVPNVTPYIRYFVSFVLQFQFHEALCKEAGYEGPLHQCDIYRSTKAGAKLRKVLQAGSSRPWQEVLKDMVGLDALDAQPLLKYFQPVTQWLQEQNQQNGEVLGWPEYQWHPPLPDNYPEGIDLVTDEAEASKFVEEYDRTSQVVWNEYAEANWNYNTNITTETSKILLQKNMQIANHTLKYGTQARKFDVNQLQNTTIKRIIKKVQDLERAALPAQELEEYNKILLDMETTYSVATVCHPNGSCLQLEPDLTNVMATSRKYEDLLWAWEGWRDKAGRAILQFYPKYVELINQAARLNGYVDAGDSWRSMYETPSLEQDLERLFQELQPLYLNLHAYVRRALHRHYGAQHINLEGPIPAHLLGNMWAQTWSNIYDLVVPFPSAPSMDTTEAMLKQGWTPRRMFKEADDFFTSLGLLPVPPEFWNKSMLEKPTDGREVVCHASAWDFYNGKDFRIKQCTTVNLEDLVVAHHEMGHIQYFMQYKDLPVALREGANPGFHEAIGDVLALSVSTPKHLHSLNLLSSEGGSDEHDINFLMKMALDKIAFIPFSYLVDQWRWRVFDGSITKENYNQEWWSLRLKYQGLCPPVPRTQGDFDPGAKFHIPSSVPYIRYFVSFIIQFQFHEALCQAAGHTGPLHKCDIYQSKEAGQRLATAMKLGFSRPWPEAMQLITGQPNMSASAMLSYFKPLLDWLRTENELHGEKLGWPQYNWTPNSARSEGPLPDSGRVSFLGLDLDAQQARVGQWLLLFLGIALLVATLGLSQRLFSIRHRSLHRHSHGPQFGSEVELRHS
UniProt P08473, whole entry, species assumed: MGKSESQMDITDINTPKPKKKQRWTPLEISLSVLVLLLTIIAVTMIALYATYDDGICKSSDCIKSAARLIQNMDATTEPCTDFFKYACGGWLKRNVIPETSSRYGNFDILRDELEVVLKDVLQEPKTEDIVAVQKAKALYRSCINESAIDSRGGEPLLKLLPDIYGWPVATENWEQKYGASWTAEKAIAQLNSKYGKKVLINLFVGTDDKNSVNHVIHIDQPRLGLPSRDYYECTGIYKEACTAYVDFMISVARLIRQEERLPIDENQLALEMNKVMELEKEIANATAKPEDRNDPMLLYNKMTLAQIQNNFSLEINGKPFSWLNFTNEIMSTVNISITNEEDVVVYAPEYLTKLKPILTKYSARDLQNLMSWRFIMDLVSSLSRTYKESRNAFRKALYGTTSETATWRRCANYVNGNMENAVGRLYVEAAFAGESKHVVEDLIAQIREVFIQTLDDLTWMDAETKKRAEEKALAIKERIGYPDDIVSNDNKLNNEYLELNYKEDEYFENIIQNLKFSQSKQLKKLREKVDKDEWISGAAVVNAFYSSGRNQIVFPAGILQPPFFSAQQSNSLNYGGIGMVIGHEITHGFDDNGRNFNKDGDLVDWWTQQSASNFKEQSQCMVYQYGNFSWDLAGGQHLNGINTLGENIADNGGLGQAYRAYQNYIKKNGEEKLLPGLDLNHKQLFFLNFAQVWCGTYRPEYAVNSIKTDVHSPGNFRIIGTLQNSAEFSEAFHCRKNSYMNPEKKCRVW

What was measured:
[1] = molecular target: angiotensin I-converting enzyme (ACE) (Homo sapiens, UniProt P12821); test: Inhibition of purified angiotensin I-converting enzyme; type: biochemical
Protocol: (§1) For this reason, the inhibitory capacity of the phosphinic peptide propyl-NH-Arg-Phe(PO2—CH2)Leu-Ala-NH2 was evaluated with respect to the purified forms of these two peptidases (measurement of the Ki values according to Dive et al., PNAS, 1999, 96, 4330-4335). […] This compound therefore behaves as an extremely potent inhibitor with respect to these two peptidases.
(§2) In order to have a better knowledge of the inhibitory properties of the various molecules contained in the starting library, with respect to ACE and NEP, the inhibitory capacity of sublibraries containing discrete mixtures of generic formula: propyl-NH-Aaa-Phe (PO2—CH2)Leu-Yaa-NH2
(§3) in which the position marked as Aaa contains a specific amino acid, whereas, in position Yaa, a mixture of 20 natural acids occurs, was evaluated.
FIG. 24 gives the percentage inhibition of the mixtures of phosphinic peptides, corresponding to the generic formula above, with respect to ACE, according to the nature of the residue at position Aaa. The results reported in this figure indicate very clearly that many phosphinic peptides present in these sublibraries appear to be potent inhibitors of ACE. Advantageously, it is seen that, among the residues at position Aaa that optimize the inhibitory capacity of the compounds with respect to ACE, are the residues His, Arg and Tyr.

[2] = molecular target: neutral endopeptidase (NEP, neprilysin) (Homo sapiens, UniProt P08473); test: Inhibition of purified neutral endopeptidase; type: biochemical; conditions: purified enzyme
Protocol: as §1, §2, §3
When the same sublibraries are tested on NEP (FIG. 25), it also appears that many peptides contained in the sublibraries should behave as very potent inhibitors of NEP. It will be noted that several types of amino acid at position Aaa optimize the enzyme-inhibitor interactions.

[3] = In vivo screening of the tritiated phosphinic peptide library in mice (β-imager autoradiography, organ extraction, MS/MS); set-up: species or system mouse; conditions: kidney, lung and heart extracts after i.p. injection of the library
Protocol: (§4) The mice used for the experiments are female Balb/C mice. The phosphinic peptides of the library (10 mg, radioactivity ranging from 0.8 to 1 mCi) are solubilized in a solution of PBS containing 10% of DMSO. If the presence of 400 molecules in this library is considered, the amount of each product injected is of the order of 25 μg per animal, representing a dose of 1.25 mg/kg for mice weighing 20 g. In the case of injection of a single product, the doses used were 20 mg/kg, for a total radioactivity ranging from 100 to 150 μCi. The injections were given at various times (5 min, 1 h, 3 h and 24 h).
Immediately after the animals had been sacrificed, the various organs or tissues are removed, rinsed in a PBS solution and immersed in heptane cooled to −70° C. […] After drying, the sections are analyzed in a β-imager. […]
After a certain period of time (1 h or 15 min), the animals are sacrificed. Whole body sections are prepared and analyzed by autoradiography on a β-imager, a device capable of detecting the β-radiation of tritium. These experiments indicate, both at 15 min and 1 h after injection of the library, that radioactivity is observed in various organs; FIG. 5 illustrates an autoradiograph, produced on a β-imager, of a sagittal section of the whole body of a mouse which was administered a solution containing the library of phosphinic peptides and which was sacrificed 1 h after the injection. […]

[4] = Tissue distribution of the pure radiolabeled peptide in mice (autoradiography, HPLC with radioactivity detection); type: in vivo, mouse; conditions: 20 mg/kg
Protocol: as §4
Immediately after the animals had been sacrificed, the various organs or tissues are removed, rinsed in a PBS solution and immersed in heptane cooled to −70° C. (eutectic mixture of heptane and dry ice). The frozen tissue sections, 25 μm thick, are prepared by means of a microtome at −20° C. After drying, the sections are analyzed in a β-imager.
FIGS. 14 to 19 represent HPLC spectra, with detection of radioactivity, corresponding to the pure tritiated product propyl-Arg-Phe(PO2—CH2)Leu-Ala-NH2, and to the various organ extracts originating from a mouse that was administered the peptide propyl-Arg-Phe(PO2—CH2)Leu-Ala-NH2 (20 mg/kg, 100 μCi) and was sacrificed 1 h after injection of the product.
In order to illustrate the ability of the peptide propyl-Arg-Phe(PO2—CH2)Leu-Ala-NH2, firstly, to target certain organs such as the heart and the lungs and, secondly, to accumulate in these organs, another molecule was used under the same conditions as a negative control; it is another molecule of the library described above, i.e. propyl-Tyr-Phe(PO2—CH2)Leu-Pro-NH2.

[5] = Quantification of the radiolabeled peptide in mouse organs by β-imager and mass spectrometry; type: in vivo; conditions: mice, 500 μg injected, 1 h
Protocol: In order to establish this comparison, 500 μg of a tritium-radiolabeled phosphinic compound propyl-Arg-Phe(PO2—CH2)Ala-Ala-NH2 (pro-Arg) (specific radioactivity of 68 mCi/mmol) were injected into mice. One hour after injection of the product, its tissue distribution was studied by detection of the radioactivity using frozen tissue sections. The organs containing radioactivity were treated in order to prepare tissue extracts which could enable their analysis by mass spectrometry, in accordance with the extraction protocol illustrated in FIG. 26.
Based on the integration of the signal and of the specific radioactivity of the product (68 mCi/mmol), it is possible to determine the amount of product present per mm^2 of kidney.
Mass: the product is extracted from ground kidney material originating from an animal treated under the same conditions as above (extraction protocol described in FIG. 26), followed by concentration of the fractions to dryness and taking up the product in 100 μl of solvent (water/formic acid; 50:50); if the extraction was quantitative, the theoretical concentration of the sample should be of the order of 1.5 mM. Based on this working hypothesis, it can be estimated that the injection of a microliter of this 100-fold diluted solution (15 μM) represents 15 pmol of product introduced into the mass spectrometer (Electrospray, Quatro, Micromass).

[6] = integrated over the whole kidney

## propyl-NH-Arg-Phe(PO2—CH2)Leu-Ala-NH2
[1]; corresponding to the IC50, read-out: inhibition constant Ki, angiotensin-converting enzyme
  Ki: 15 nM
[1]; read-out: IC50 with respect to angiotensin-converting enzyme
  IC50: 30 nM
[2]; corresponding to the IC50, read-out: inhibition constant Ki, NEP
  Ki: 30 nM
[2]; read-out: IC50 with respect to NEP
  IC50: 100 nM
[3]
  presence of the peptide in organ extracts by MS/MS: this peptide is present in these organs
[4]; 100 μCi, 1 h
  ability to accumulate in the heart and the lungs and to appear in the brain, compared with the negative control peptide: distinguishes itself very clearly
[4]; 100 μCi, I.P., 1 h
  crossing of the blood-brain barrier: capable of crossing the blood-brain barrier
[4]; 100 μCi, I.P., sacrificed 1 h after injection
  tissue distribution by autoradiography: observed in the heart, the brain, the liver, the lungs and the kidneys
[4]; I.P., 1 h, extraction and structural analysis
  form of the radioactivity found in the organs (metabolic stability): in intact form
[5]; brain extract
  presence of the product in brain extract by MS/MS fragmentation: presence of the intact product in the brain
[5]; brain, β-imager
  radiolabeling in a localized region of the brain: 0.35 pCi/mm^2
[5]; [6]
  total amount of product in the kidney: 75 µg
  total amount of product in the kidney, share of the injected dose: 15 % of the injected dose
[5]; kidney
  amount of product per mm^2 of kidney (mass): 127 pg/mm^2
[5]; kidney, β-imager
  radioactive signal on kidney section: 14.5 pCi/mm^2
[5]; kidney, from specific radioactivity 68 mCi/mmol
  amount of product per mm^2 of kidney (molar): 0.2 pmol/mm^2
[5]; lung
  amount of product in the lung, share of the injected dose: 2.2 % of the injected dose
[5]; lung, β-imager
  radioactivity in the lung: 2.6 pCi/mm^2
